Results reported in patent US9675612B2, “Substituted thiazolopyrimidines” (BAYER PHARMA AKTIENGESELLSCHAFT, priority 2013, dated 2017).

Protein sequences, listed by entry. Tags and fused reporters are not part of them. Chains listed by the source or under a name are the forms on record and can include a tag or linker.
UniProt Q9BUB5, other isoform, or with tags, fused parts or gaps T344D: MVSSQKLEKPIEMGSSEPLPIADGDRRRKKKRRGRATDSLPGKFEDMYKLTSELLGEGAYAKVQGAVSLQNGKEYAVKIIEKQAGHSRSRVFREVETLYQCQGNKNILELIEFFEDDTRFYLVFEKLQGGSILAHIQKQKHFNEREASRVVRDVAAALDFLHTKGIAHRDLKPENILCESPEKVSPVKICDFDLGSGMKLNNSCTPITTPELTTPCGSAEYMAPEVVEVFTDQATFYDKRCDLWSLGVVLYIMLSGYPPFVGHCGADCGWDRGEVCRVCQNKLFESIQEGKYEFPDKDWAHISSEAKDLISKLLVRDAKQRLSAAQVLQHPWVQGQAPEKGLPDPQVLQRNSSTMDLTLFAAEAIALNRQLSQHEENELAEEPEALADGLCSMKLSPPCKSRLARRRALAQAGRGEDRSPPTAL

Biological target: human full-length MKNK1 (Homo sapiens (Human), UniProt Q9BUB5, T344D)
Experiment: MKNK1 kinase high ATP assay (TR-FRET)
Assay type: biochemical
Conditions: high ATP (2 mM final), 15 min preincubation with MKNK1, TR-FRET
Experimental: MKNK1 Kinase High ATP Assay
MKNK1-inhibitory activity at high ATP of compounds of the present invention after their preincubation with MKNK1 was quantified employing the TR-FRET-based MKNK1 high ATP assay as described in the following paragraphs.
As substrate for the kinase reaction the biotinylated peptide biotin-Ahx-[…] (C-terminus in amide form) was used, which can be purchased e.g. from the company Biosyntan (Berlin-Buch, Germany).
For the assay 50 nL of a 100 fold concentrated solution of the test compound in DMSO was pipetted into a black low volume 384 well microtiter plate (Greiner Bio-One, Frickenhausen, Germany), 2 μL of a solution of MKNK1 in aqueous assay buffer [50 mM HEPES pH 7.5, 5 mM MgCl2, 1.0 mM dithiothreitol, 0.005% (v/v) Nonidet-P40 (Sigma)] was added and the mixture was incubated for 15 min at 22° C. to allow pre-binding of the test compounds to the enzyme before the start of the kinase reaction. Then the kinase reaction was started by the addition of 3 μL of a solution of adenosine-tri-phosphate (ATP, 3.3 mM=>final conc. in the 5 μL assay volume is 2 mM) and substrate (0.1 μM=>final conc. in the 5 μL assay volume is 0.06 μM) in assay buffer and the resulting mixture was incubated for a reaction time of 30 min at 22° C. The concentration of MKNK1 was adjusted depending of the activity of the enzyme lot and was chosen appropriate to have the assay in the linear range, typical concentrations were in the range of 0.003 μg/mL. The reaction was stopped by the addition of 5 μL of a solution of TR-FRET detection reagents (5 nM streptavidine-XL665 [Cisbio Bioassays, Codolet, France] and 1 nM anti-ribosomal protein S6 (pSer236)-antibody from Invitrogen [#44921G] and 1 nM LANCE EU-W1024 labeled ProteinG [Perkin-Elmer, product no. AD0071]) in an aqueous EDTA-solution (100 mM EDTA, 0.1% (w/v) bovine serum albumin in 50 mM HEPES pH 7.5).
The resulting mixture was incubated for 1 h at 22° C. to allow the formation of complex between the phosphorylated biotinylated peptide and the detection reagents. Subsequently the amount of phosphorylated substrate was evaluated by measurement of the resonance energy transfer from the Eu-chelate to the streptavidine-XL.

SMILES | IC50
O=c1[nH]c2ccc(Nc3ncnc4sc(C5CCCCC5)nc34)cc2s1 [Example 3, 6-[(2-Cyclohexyl[1,3]thiazolo[5,4-d]pyrimidin-7-yl)amino]-1,3-benzothiazol-2(3H)-one] | 197 nM
CC(C)Oc1cc2[nH]ncc2cc1Nc1ncnc2sc(CCc3ccccc3)nc12 [Example 17, 2-(2-Phenylethyl)-N-[6-(propan-2-yloxy)-1H-indazol-5-yl][1,3]thiazolo[5,4-d]pyrimidin-7-amine] | 229 nM
COc1cc2[nH]c(=O)sc2cc1Nc1ncnc2scnc12 [Example 18, 5-Methoxy-6-([1,3]thiazolo[5,4-d]pyrimidin-7-ylamino)-1,3-benzothiazol-2(3H)-one] | 104 nM
CN(C)C(=O)CCN(C)C(=O)c1nc2c(Nc3ccc4[nH]ncc4c3)ncnc2s1 [Example 40, N-[3-(Dimethylamino)-3-oxopropyl]-7-(1H-indazol-5-ylamino)-N-methyl[1,3]thiazolo[5,4-d]pyrimidine-2-carboxamide] | 49 nM
CCOc1cc2[nH]ncc2cc1Nc1ncnc2sc(C(=O)N(C)CCC(=O)N(C)C)nc12 [Example 42, N-[3-(Dimethylamino)-3-oxopropyl]-7-[(6-ethoxy-1H-indazol-5-yl)amino]-N-methyl[1,3]thiazolo[5,4-d]pyrimidine-2-carboxamide] | 125 nM

Second part, the compound after the results:

IC50 | SMILES
173 nM | CC1(O)CN(C(=O)CCCc2nc3c(Nc4ccc5[nH]ncc5c4)ncnc3s2)C1 [Example 12, 1-(3-Hydroxy-3-methylazetidin-1-yl)-4-[7-(1H-indazol-5-ylamino)[1,3]thiazolo[5,4-d]pyrimidin-2-yl]butan-1-one]
122 nM | CN(C)C(=O)CCCc1nc2c(Nc3ccc4[nH]ncc4c3)ncnc2s1 [Example 13, 4-[7-(1H-Indazol-5-ylamino)[1,3]thiazolo[5,4-d]pyrimidin-2-yl]-N,N-dimethylbutanamide]
408 nM | CN(C)C(=O)c1nc2c(Nc3ccc4[nH]c(=O)sc4c3)ncnc2s1 [Example 27, N,N-Dimethyl-7-[(2-oxo-2,3-dihydro-1,3-benzothiazol-6-yl)amino][1,3]thiazolo[5,4-d]pyrimidine-2-carboxamide]
199 nM | COc1cc2[nH]ncc2cc1Nc1ncnc2sc(C(=O)N(C)C)nc12 [Example 29, 7-[(6-Methoxy-1H-indazol-5-yl)amino]-N,N-dimethyl[1,3]thiazolo[5,4-d]pyrimidine-2-carboxamide]
52 nM | CC(C)Oc1cc2[nH]ncc2cc1Nc1ncnc2sc(C(=O)N(C)C)nc12 [Example 44, N,N-Dimethyl-7-{[6-(propan-2-yloxy)-1H-indazol-5-yl]amino}[1,3]thiazolo[5,4-d]pyrimidine-2-carboxamide]
32 nM | CC(C)Oc1cc2[nH]ncc2cc1Nc1ncnc2sc(C(=O)N(C)CCC(=O)N(C)C)nc12 [Example 47, N-[3-(Dimethylamino)-3-oxopropyl]-7-[(6-isopropoxy-1H-indazol-5-yl)amino]-N-methyl[1,3]thiazolo[5,4-d]pyrimidine-2-carboxamide]
